The source of these data is BindingDB's records for 20599386.

Chains of the proteins cited; added tags and fusions are not shown. Lines headed by an entry give the natural chain unless they say otherwise; changes in a name come on top.
UniProt P41144: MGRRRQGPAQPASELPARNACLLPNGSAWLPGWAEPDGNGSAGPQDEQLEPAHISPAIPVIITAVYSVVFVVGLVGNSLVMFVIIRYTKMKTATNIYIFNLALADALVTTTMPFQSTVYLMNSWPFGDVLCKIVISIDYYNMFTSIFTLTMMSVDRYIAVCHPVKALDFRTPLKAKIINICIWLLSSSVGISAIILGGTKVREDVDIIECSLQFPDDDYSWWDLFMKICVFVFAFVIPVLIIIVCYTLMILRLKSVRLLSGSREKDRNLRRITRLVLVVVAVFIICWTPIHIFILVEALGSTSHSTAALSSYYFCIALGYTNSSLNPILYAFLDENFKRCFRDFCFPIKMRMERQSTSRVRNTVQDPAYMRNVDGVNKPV

Structures are written as SMILES.

In the assay the target is Kappa-type opioid receptor (Cavia porcellus, UniProt P41144). Nature of the assay: Displacement of [3H]U69593 from Sprague-Dawley rat kappa opioid receptor in guinea pig cerebella by liquid scintillation counting. (In a radioligand displacement assay an active substance lowers the binding of a labelled ligand.)

Consider `CN(C(=O)Cc1ccc(Cl)c(Cl)c1)[C@@H]1CCCC[C@H]1N1CCCC1`, for which the Ki – broadly, the dissociation constant of the complex between target and ligand, obtained from inhibition or displacement – turned out to be 1.1 nM.
